Earlier results in US7164021B2, “Opiate analogs selective for the δ-opioid receptor” (The Curators of The University of Missouri, priority 2002, dated 2007).

Chains of the proteins cited; added tags and fusions are not shown.
UniProt P33535, whole entry: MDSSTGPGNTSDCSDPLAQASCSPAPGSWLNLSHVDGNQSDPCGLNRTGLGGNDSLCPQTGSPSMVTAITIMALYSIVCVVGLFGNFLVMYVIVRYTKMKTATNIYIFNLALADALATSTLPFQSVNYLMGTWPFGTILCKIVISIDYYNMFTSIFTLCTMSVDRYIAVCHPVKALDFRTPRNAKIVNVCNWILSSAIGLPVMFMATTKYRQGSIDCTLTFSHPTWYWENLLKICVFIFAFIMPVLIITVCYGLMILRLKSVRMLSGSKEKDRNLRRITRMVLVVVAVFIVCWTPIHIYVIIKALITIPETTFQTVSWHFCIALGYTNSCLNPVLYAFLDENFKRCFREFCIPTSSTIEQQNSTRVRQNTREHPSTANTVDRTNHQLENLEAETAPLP

Target: μ receptor (Rattus norvegicus, UniProt P33535)
Conditions: experimental value of the reference opioid; cited from earlier work

## Oc1ccc2c3c1O[C@H]1c4[nH]c5ccccc5c4C[C@@]4(O)[C@@H](C2)N(CC2CC2)CC[C@]314 [NTI, naltrindole]
  experimental affinity μ receptor (value in parenthesis): 7.19(7.19)#

Marks after values point to notes of the source that are not given here.
